## Apparent affinities of Ab-14 variants for a coronavirus HR2 peptide

Target: peptide PDVDLGDISGINAS, taken from heptad repeat 2 (HR2) of SARS-CoV-2 spike.

Parent scFv Ab-14: VH joined to VL by the linker GGGGSGGGGSGGGGS. Changes lie in the light chain CDRs alone.
VH: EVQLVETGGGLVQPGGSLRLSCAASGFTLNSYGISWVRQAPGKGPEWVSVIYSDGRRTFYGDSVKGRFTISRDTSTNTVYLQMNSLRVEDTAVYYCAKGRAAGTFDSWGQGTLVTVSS
VL: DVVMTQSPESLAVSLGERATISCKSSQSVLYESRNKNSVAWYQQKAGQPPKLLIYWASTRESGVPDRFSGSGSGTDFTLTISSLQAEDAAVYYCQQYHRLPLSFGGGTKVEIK

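Designed CDR sequences, proposed from the first random library and measured here. Several design methods are mixed in this list. The scFvs were displayed on barcoded MATa yeast, the peptide on MATalpha yeast. The frequency of each diploid, read from paired DNA barcodes, reflects how well the two displayed proteins bind. The ratio of observed to expected reads was calibrated, replicate by replicate, on BCL2-family standards whose Kd was known from biolayer interferometry. The assay was run in six technical replicates.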

The parent's light chain CDRs are KSSQSVLYESRNKNSVA, WASTRES, QQYHRLPLS; each variant's own CDRs replace them letter for letter.
Kd is apparent (estimated from mating counts) and averaged on the log scale over replicates with a signal. Smaller is tighter.
A pair that was not seen in any replicate is written "not detected"; this usually means weak binding, but a binder can also be missed.
Nonspecific signal, from three strains lacking the peptide, appeared in 4% of pairings of all light chain designs, centred on 430 nM (5% of these signals below 38 nM); values are not corrected for it.
The authors averaged sequences with at least three values out of six and counted those with two or fewer as poor binders.
Some sequences occur more than once in the pool; their replicates are pooled.
The parent sequence was in this pool as ten entries: three were never detected, three once, and four in most replicates, with averages from 2.2 nM to 240 nM.
The range of this assay differs from that of the first round, and the authors advise against merging the two.

| # | Kd (apparent) | seen in | CDR-L1 | CDR-L2 | CDR-L3 |
|---|---|---|---|---|---|
| 1 | 750 pM | 6 of 6 | KVSQSWLYESRNKNSVA | QASTRES | QQYHRLPLS |
| 2 | 940 pM | 6 of 6 | KLQQSQLYESRNKNSVA | NASTRES | QQYHRLPLS |
| 3 | 95 pM | 6 of 6 | KLSQSVLYESRNKNSVA | NASQRER | QQYHRLPLS |
| 4 | 56 nM | 5 of 6 | KSSQQVLYESRNHNSVA | WASTRES | QQYHRLPLS |
| 5 | 1.4 nM | 6 of 6 | KWEYSVLGESRNKNAVA | EASQREQ | QQYHRLPLS |
| 6 | 13 nM | 6 of 6 | FLSQSVLYEERLDNSVA | NASTRCS | QQYHRLPLS |
| 7 | 4.8 nM | 6 of 6 | KSSGQVCYGDRNKNSVA | NASTREQ | QQYHRLPLS |
| 8 | 9.5 nM | 6 of 6 | MVNQHDEGFKGVKDAIA | NAELREG | QHYGRLPLS |
| 9 | 730 pM | 6 of 6 | KFSPSELYESRTKNSVA | NASTRES | QQYHRLPLS |
| 10 | 45 nM | 6 of 6 | MISQLYNMGSFAINSVA | QANLRNE | QQYDRLPLA |
| 11 | 35 nM | 6 of 6 | MISQLYNMGSFAINSVA | QASTRNE | QQYDRLPLM |
| 12 | 16 nM | 6 of 6 | KVQQQVLYESNNKNSVA | WASTRES | QQYHRLPLS |
| 13 | 320 pM | 6 of 6 | KLEQSVLYEDRNKNSVA | NASTRES | QQYHRLPLS |
| 14 | 230 nM | 6 of 6 | IISGVMLVESKHKNSVA | NAETREY | QHYDRLPLS |
| 15 | 1.2 nM | 6 of 6 | YLSQSVLYESRNKNSVA | DASTRES | QQYHRLPLS |
| 16 | 1.0 nM | 6 of 6 | TLWDSIQGGDKAKKNVA | DEQVRMV | QQYYRLPLS |
| 17 | 5.1 nM | 6 of 6 | TISQMTSSFTQNINNVA | EVSTRCK | QQYDRLPLA |
| 18 | 3.0 nM | 6 of 6 | KSSQSVLYESRNKNSVA | NGSTRES | QQYHRLPLS |
| 19 | 1.1 nM | 6 of 6 | KESQSELYESANKNSVA | NAMQRMS | QQYHRLPLS |
| 20 | 600 pM | 6 of 6 | KLRQSTLYESRNKNSVA | DASTRES | QQYHRLPLS |
| 21 | 15 nM | 6 of 6 | KSSQSVLYESRNKNAVA | AASTRES | SQYHRLPLS |
| 22 | 2.4 nM | 6 of 6 | KLSQSVLYESRNKNSVA | HASTRLS | QQYHRLPLS |
| 23 | 710 pM | 6 of 6 | KVSQSVLYESRMKNSVA | DASTRCS | QQYHRLPLE |
| 24 | 7.2 nM | 6 of 6 | KSPQSVLYESRNKNSVA | AASTRED | QSYHRLPLS |
| 25 | 65 nM | 4 of 6 | MISQIYNMGTFAINSVA | QASIRNA | QQYDRLPLV |
| 26 | 2.2 nM | 6 of 6 | KVDISATVQGMHKSGIA | EHDMRVG | QQYFRLPLA |
| 27 | 780 pM | 6 of 6 | KLQQSNLYESRNTNSVA | NASQREQ | QQYHRLPLS |
| 28 | 1.8 nM | 6 of 6 | QLNHYKHETMAKWQNIA | DMTIREK | QQYAHLPLA |
| 29 | 460 pM | 6 of 6 | KVSQSDLYESRNKNSVA | EASQRES | QQYHRLPLS |
| 30 | 23 nM | 6 of 6 | SLTKLETTGQKKSENIA | DQSMRYE | QQYSRLPLK |
| 31 | 2.9 nM | 6 of 6 | KISGSYLGESRNWNAVA | NASQREQ | QQYHRLPLS |
| 32 | 13 nM | 6 of 6 | KIGHGLTTESRNKNSVA | QTETREE | QHYHRLPLS |
| 33 | 280 nM | 5 of 6 | HLQEQSFVGQKDYWSVA | NTECKYN | QQYAQLPLM |
| 34 | not detected | 0 of 6 | KSSQSVLYESRNKNNVA | WASTRES | QQYHRLPLS |
| 35 | 68 nM | 4 of 6 | HMSMLTMMGMRQRNSVA | QMTMREN | QQYDRLPLI |
| 36 | 1.5 nM | 6 of 6 | KYSQSWLYESRNKNSVA | GASTREN | QQYHRLPLS |
| 37 | 1.7 nM | 6 of 6 | SIRQVTCDNQATHSNIA | DATQIEP | QQYSRLPLS |
| 38 | 2.2 nM | 6 of 6 | TLGTVTLMESRNKNNVA | QMSTREK | QQYDRLPLS |
| 39 | 2.8 nM | 6 of 6 | KYSQSVLYESRNKNSVA | NASQRES | QQYHRLPLS |
| 40 | 760 pM | 6 of 6 | NIYQAMHTLSMNRNNVA | DVNERGS | QQYFRLPLS |
| 41 | 5.6 nM | 6 of 6 | KVSQSELYGSRNKWSVA | NASTRES | QQYHRLPLS |
| 42 | 780 pM | 6 of 6 | AVDFSWLYESRNKNSVA | NASTREQ | QQYHRLPLS |
| 43 | 8.8 nM | 6 of 6 | KLYQSYLYESRNKNSVA | NASQRES | QQYHRLPLS |
| 44 | 120 nM | 6 of 6 | KLQQSKLYLSRWKNSVA | HASVRES | QQYHRLPLS |
| 45 | 2.8 nM | 6 of 6 | KMSQSQLYEERASNAVA | HASQRES | QQYHRLPLS |
| 46 | 2.7 nM | 6 of 6 | SLSNQETEQIQHANSIA | DRDERDV | QQYAHLPLS |
| 47 | 520 pM | 6 of 6 | KLPQSFLYESRNKNSVA | NASQRES | QQYHRLPLS |
| 48 | 17 nM | 2 of 6 | MISQLFMYGSRNYNSIA | QASTRFK | QQYDRLPLI |
| 49 | 660 pM | 6 of 6 | KVSQSVLYEDRNKNSVA | NASTRLS | QQYHRLPLS |
| 50 | 970 pM | 1 of 6 | KVSQSVLYESRNENSVA | WASTRES | QQYHRLPLS |
| 51 | 1.7 nM | 6 of 6 | KLSQSVEVLSRNDNSVA | EASTREM | QQYHRLPLS |
| 52 | 28 nM | 12 of 12 | KSSQSILYESRNKNSVA | HASTRES | QQYHRLPLS |
| 53 | 19 nM | 5 of 6 | KSSQSVLYQERNKNNVA | KASTRES | YQYHELPLS |
| 54 | 16 nM | 6 of 6 | KLWMSVLGESRNSNAVA | SASTREL | QQYHRLPLS |
| 55 | 110 nM | 4 of 6 | VMQMQNDRMQDAAKNIA | GVDMRET | QQYARLPFM |
| 56 | 950 pM | 6 of 6 | KLGDFVHTESRNKNSIA | DMRTRES | QQYYRLPLS |
| 57 | 3.3 nM | 6 of 6 | HISYSMAHLSKNKNSVA | NQQTREE | QQYHRLPLS |
| 58 | 4.2 nM | 6 of 6 | KISQSIMFMSGMKNAIA | QMEMREE | QQYHRLPLS |
| 59 | 1.2 nM | 6 of 6 | KLSMSELPESRNKNSVA | WASTRMP | QQYHRLPLS |
| 60 | 630 pM | 6 of 6 | KLMQSMLYESRNKNSVA | NASTRLS | QQYHRLPLS |
| 61 | 1.6 nM | 6 of 6 | KSQQSVLYESRNKNNVA | GASTRED | QQYHRLPLS |
| 62 | 14 nM | 6 of 6 | TGNVELAYGVHEMNNVA | DGDQKED | QQYYRLPLA |
| 63 | 2.9 nM | 6 of 6 | KLSQSQLYESRMKNSVA | NASQRES | QQYHRLPLS |
| 64 | 13 nM | 6 of 6 | SLMQVGGYESNAHNSIA | DLRTRED | QQYHRLPLS |
| 65 | 2.4 nM | 6 of 6 | KSFQSELDEQRNDNSVA | SASTRLS | QQYHRLPLS |
| 66 | 29 nM | 6 of 6 | TIQQMMSLFSQTINNVA | EVSLREK | QQYDRLPLA |
| 67 | 1.2 nM | 6 of 6 | KIAQSYLYEDRNKNSVA | NASTRLW | QQYHRLPLS |
| 68 | 640 pM | 6 of 6 | KVSQSVLYNSRNVNSVA | HASTRES | QQYHRLPLS |
| 69 | 740 pM | 6 of 6 | HISPMQAYAYEAKNSVA | DTETKLN | QQYIRLPLT |
| 70 | 1.8 µM | 2 of 6 | KSSQSVRRESREKNDVA | WASTRES | QQYHRLPLS |
| 71 | not detected | 0 of 6 | KSSQSCLYESRNKNSVA | WASTRES | QQYHRLGLS |
| 72 | 44 nM | 6 of 6 | KVSQSVLGESRNKNSVA | WADTRES | QWYMRLPLS |
| 73 | 2.4 nM | 6 of 6 | KFSQMSNMFSVSMNAVA | EMSTRPE | QQYNRLPLS |
| 74 | 8.6 nM | 6 of 6 | KSSISKLYESENKNSVA | EASQRES | QQYHRLPLS |
| 75 | 1.2 nM | 6 of 6 | KIGGTLNTLMHQKNNVA | DLVEREN | QQYHRLPLS |
| 76 | 5.7 nM | 6 of 6 | MISQLSNMGQFAINSVA | QASLRND | QQYDRLPLM |
| 77 | 45 nM | 3 of 6 | MLSQMWALGSKVKNSVA | QASMRFN | QQYDRLPLM |
| 78 | 5.0 nM | 6 of 6 | KITTTMRFEQKQSNNIA | EVTTRSK | QQYYRLPLA |

For reference, 7 entries of the list once more:

CDR-L1,CDR-L2,CDR-L3,Kd (apparent),seen in
KLQQSQLYESRNKNSVA,NASTRES,QQYHRLPLS,940 pM,6 of 6
MISQLYNMGSFAINSVA,QASTRNE,QQYDRLPLM,35 nM,6 of 6
KVSQSVLYEDRNKNSVA,NASTRLS,QQYHRLPLS,660 pM,6 of 6
HISYSMAHLSKNKNSVA,NQQTREE,QQYHRLPLS,3.3 nM,6 of 6
KSQQSVLYESRNKNNVA,GASTRED,QQYHRLPLS,1.6 nM,6 of 6
NIYQAMHTLSMNRNNVA,DVNERGS,QQYFRLPLS,760 pM,6 of 6
KSSQSCLYESRNKNSVA,WASTRES,QQYHRLGLS,not detected,0 of 6

From the AlphaSeq antibody data of Li et al. 2023 (doi:10.1038/s41467-023-39022-2), copy in the FLAb collection.